The results in this text go back to patent publication US6022880A, “Substituted pyridylamino indoles” (Hoechst Marion Roussel, Inc., priority 1997, dated 2000).

The subject of the test is serotonin uptake, rat whole brain synaptosomes. Description: Inhibition of [3H]-Serotonin Uptake in Rat Whole Brain Synaptosomes. It counts as biochemical, rat (male Wistar). The following applies: [3H]-5HT 50 nM, read-out: C: Inhibition of serotonin uptake, IC50. On the procedure:
(C) Inhibition of [^3 H]-Serotonin Uptake in Rat Whole Brain Synaptosomes
A. Animals: Male CR Wistar Rats (100-125 g).
The final desired concentration of ^3 H-5HT in the assay is 50 nM. The dilution factor is 0.8.
5. For most assays, a 1 mM solution of the test compound is made up in suitable solvent and serially diluted such that the final concentration in the assay ranges from 2×10^-8 to 2×10^-5 M. Seven concentrations are used for each assay.
Male Wistar rats are decapitated and the brain rapidly removed. Whole brain minus cerebella is weighed and homogenized in 9 volumes of ice-cold 0.32 M sucrose using a Potter-Elvejhem homogenizer. Homogenization should be done with 4-5 up and down strokes at medium speeds to minimize synaptosome lysis. The homogenate is centrifuged at 1000 g for 10 min. at 0-4° C. The supernatant (S1) is decanted and is used for uptake experiments.
Tubes are incubated at 37° C. under a 95% O2 /5% CO2 atmosphere for 5 minutes. For each assay, 3 tubes are incubated with 20 μl of vehicle at 0° C. in an ice bath. After incubation all tubes are immediately centrifuged at 4000 g for 10 minutes. The supernatant fluid is aspirated and the pellets dissolved by adding 1 ml of solubilizer (Tritor. X-100+50% EtOH, 1:4 v/v). The tubes are vigorously vortexed, decanted into scintillation vials, and counted in 10 ml of Liquiscint scintillation counting cocktail. Active uptake is the difference between cpm at 37° C. and 0° C. The percent inhibition at each drug concentration is the mean of three determinations. IC50 values are derived from log-probit analysis.

On to `CN(C)CCC=C1c2ccccc2CCc2ccccc21` [Amitriptyline, reference compound], for which the IC50 (usually the concentration at which inhibition is half-maximal) is 830 nM. `CN(C)CCCN1c2ccccc2CCc2ccc(Cl)cc21` [Chloripramine, reference compound]: the concentration for half-maximal inhibition (IC50) stood at 150 nM. To `CN1CCN(C2=Nc3cc(Cl)ccc3Nc3ccccc32)CC1` [Clozapine, reference compound] belongs above 20000 nM.
